Source: patent EP4198126B1 (priority 2021, dated 2023)

Test system: human primary T cells
Details: Figure 4F

## Cc1cc2ncnn2cc1Nc1ncc2c(n1)n(C1CCOCC1)c(=O)n2C [AZD-7648]
  cell viability after genome editing: did not alleviate the genome-editing mediated reduction in cell viability
